Test results: patent publication US20210253671A1

Target: IL-2 receptor (IL-2R)

Binder | EC50, CTLL-2 cell-based assay
IL2-Linker2-AAT (X=Ser; Z=Ser) (ligand) [here about 150 residues without letters]GGGGSGGGGSEDPQGDAAQKTDTSHHDQDHPTFNKITPNLAEFAFSLYRQLAHQSNSTNIFFSPVSIATAFAMLSLGTKADTHDEILEGLNFNLTEIPEAQIHEGFQELLRTLNQPDSQLQLTTGNGLFLSEGLKLVDKFLEDVKKLYHSEAFTVNFGDTEEAKKQINDYVEKGTQGKIVDLVKELDRDTVFALVNYIFFKGKWERPFEVKDTEEEDFHVDQVTTVKVPMMKRLGMFNIQHSKKLSSWVLLMKYLGNATAIFFLPDEGKLQHLENELTHDIITKFLENEDRRSASLHLPKLSITGTYDLKSVLGQLGITKVFSNGADLSGVTEEAPLKLSKAVHKAVLTIDEKGTEAAGAMFLEAIPMSIPPEVKFNKPFVFLMIEQNTKSPLFMGKVVNPTQK | 0.15 nM
IL2 (X = Ser)-linker1-AAT (Z = Cys) (ligand) [here about 150 residues without letters]GSTSGSEDPQGDAAQKTDTSHHDQDHPTFNKITPNLAEFAFSLYRQLAHQSNSTNIFFSPVSIATAFAMLSLGTKADTHDEILEGLNFNLTEIPEAQIHEGFQELLRTLNQPDSQLQLTTGNGLFLSEGLKLVDKFLEDVKKLYHSEAFTVNFGDTEEAKKQINDYVEKGTQGKIVDLVKELDRDTVFALVNYIFFKGKWERPFEVKDTEEEDFHVDQVTTVKVPMMKRLGMFNIQHCKKLSSWVLLMKYLGNATAIFFLPDEGKLQHLENELTHDIITKFLENEDRRSASLHLPKLSITGTYDLKSVLGQLGITKVFSNGADLSGVTEEAPLKLSKAVHKAVLTIDEKGTEAAGAMFLEAIPMSIPPEVKFNKPFVFLMIEQNTKSPLFMGKVVNPTQK | 1.5 nM
